Assay results reported in ChEMBL document CHEMBL1147504, “Synthesis of methylphenidate analogues and their binding affinities at dopamine and serotonin transport sites” (Bioorg Med Chem Lett, 2004).

Target: Dopamine receptor

Q: How did the IC50 turn out when `COC(=O)[C@H](c1ccc2ccccc2c1)[C@H]1CCCCN1.Cl` (racemic) was run?
A: Its IC50 is 33.9 nM.
